As usually defined, the IC50 is the concentration that gives 50% inhibition. As a reminder, the EC50 is the concentration at which the effect is half-maximal.

Amino acid sequences for entries named in this document (tags omitted). A change or cut given only in a name is not applied to a line headed by its entry.
UniProt P48146: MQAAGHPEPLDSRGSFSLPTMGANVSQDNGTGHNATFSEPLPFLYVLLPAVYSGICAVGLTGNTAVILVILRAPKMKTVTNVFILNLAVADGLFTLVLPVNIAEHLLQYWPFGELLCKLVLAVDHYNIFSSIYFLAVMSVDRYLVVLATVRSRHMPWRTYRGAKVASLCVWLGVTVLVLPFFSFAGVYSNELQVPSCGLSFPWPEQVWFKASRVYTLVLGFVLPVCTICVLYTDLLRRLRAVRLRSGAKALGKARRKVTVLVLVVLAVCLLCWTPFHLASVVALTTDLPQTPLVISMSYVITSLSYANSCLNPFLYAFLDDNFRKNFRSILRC

This note sets out measurements from patent US20030232756A1, “Ligands for G protein coupled receptor GPR7 and GPR8 and uses thereof” (Euroscreen, S.A., priority 2002, published 2003).

The target in assay [1] is T1, GPR7 (Homo sapiens, UniProt P48145).
T1 sequence (P48145 1-328): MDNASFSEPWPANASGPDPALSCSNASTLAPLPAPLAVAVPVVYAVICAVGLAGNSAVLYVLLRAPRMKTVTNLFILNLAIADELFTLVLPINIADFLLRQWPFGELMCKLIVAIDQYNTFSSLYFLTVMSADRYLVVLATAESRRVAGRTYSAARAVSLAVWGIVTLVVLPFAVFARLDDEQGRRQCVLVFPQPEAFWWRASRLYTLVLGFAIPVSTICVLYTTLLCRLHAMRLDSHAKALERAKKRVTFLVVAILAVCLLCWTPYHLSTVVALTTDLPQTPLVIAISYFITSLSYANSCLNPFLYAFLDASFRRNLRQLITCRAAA
Put plainly: cAMP accumulation in CHO-K1 cells expressing GPR7, forskolin-stimulated. Set-up: expressed in transfected cells; host or cells: CHO-K1. The assay is classed as cell-based. The note with it: in the presence of forskolin 5 μM; mean±S.E.M.; read-out: IC50, inhibition of the level of cAMP, CHO-K1-GPR7. As for the experimental part: (§1) In the experiments in this section, the cyclic AMP assays comprised CHO—K1 cell lines stably expressing GPR7 or GPR8, said cells cultured in Petri dishes at 37° C. in Ham's F-12 medium, containing or not 100 ng/ml pertussis toxin (PTX). […] Cells were further preincubated for 15 min in 1 mM KRH-IBMX buffer and incubated with various concentrations of agonists for 20 min at 37° C., with or without 5 μM forskolin. Incubations were terminated by the addition of lysis buffer (CS1000 kit, Applied Biosystem, USA). The cell lysate was homogenized in the presence of cAMP-AP conjugate and an anti-cAMP-antibody, and cAMP content was quantified by ELISA (CS1000 kit, Applied Biosystem, USA).
(In general: Cyclic AMP is a second messenger, typically raised through Gs and lowered through Gi signalling.)

The target in assay [2] is T2, GPR8 (Homo sapiens, UniProt P48146). Put plainly: cAMP accumulation in CHO-K1 cells expressing GPR8, forskolin-stimulated. The assay is classed as cell-based. Set-up: expressed in transfected cells; host or cells: CHO-K1. The following applies: in the presence of forskolin 5 μM; mean±S.E.M.; read-out: IC50, inhibition of the level of cAMP, CHO-K1-GPR8. As for the experimental part: as §1

In assay [3] the target is T2, GPR8. Kind of assay: Aequorin-based functional assay, WTA11 cells expressing GPR8. Format: cell-based. More on the design: expressed in transfected cells; host or cells: CHO-K1 clone WTA11 (apoaequorin + Galpha16). The following applies: mean±S.E.M., read-out: EC50, agonist of GPR8, aequorin-based functional assay. As for the experimental part: (§2) In the experiments described in this section, the aequorin assay measured functional responses by recording the luminescence of aequorin in GPR7- and GPR8-expressing cells following addition of (potential) agonists, as previously described (Kotani, M. et al.). In brief, cells were collected from plates with PBS containing 5 mM EDTA, pelleted, resuspended at 5×10^6 cells/ml in DMEM-F12 medium containing 0.1% BSA, incubated with 5 μM coelenterazine H (Molecular Probes, Eugene, Oreg.) for 4 h at room temperature, and diluted in DMEM-F12 medium at a concentration of 5×10^5 cells/ml. Cells where then mixed with the ligands, and the light emission was recorded over 30 s using a Microlumat™ luminometer (Perkin Elmer, Norwalk, Conn.).

For assay [4], the target named is T2, GPR8. Put plainly: Competition binding assay on membranes of CHO-K1 cells expressing GPR8. More on the design: expressed in transfected cells; host or cells: CHO-K1 clone WTA11 (apoaequorin + Galpha16). The note with it: [125I]-L8 as tracer. On the procedure:
(§3) In the experiments described in this section, iodinated L8 peptide was obtained using the chloramine T labeling method (Zentech, Belgium). Competition binding assays were performed as described (Kotani, M. et al.) on crude membrane fractions prepared from CHO—K1 cell lines expressing GPR7 or GPR8. Briefly, 1 to 10 μg of membrane proteins were incubated in binding buffer (50 mM HEPES pH 7.4, 5 mM MgCl2, 1 mM CaCl2, 0.5% protease-free BSA) containing 0.1 μM [125I]-L7 or [125I]-L8 radioligand for 90 min at 27° C. Bound tracer was separated by filtration through GF/B filters (Millipore) presoaked in 0.5% polyethylenimine. Filters were then counted by gamma scintillation counting. Results were normalized for total binding in the absence of competitor (100%) and non-specific binding (0%) in the presence of a 100-fold excess of unlabelled ligand, and were analyzed by nonlinear regression, using a single-site competition model (Graph-Pad Prism Software).

Assay [5] addresses T1, GPR7. Put plainly: Aequorin-based functional assay, WTA11 cells expressing GPR7. The note with it: mean±S.E.M., read-out: EC50, agonist of GPR7, aequorin-based functional assay. The assay is classed as cell-based. Set-up: expressed in transfected cells; host or cells: CHO-K1 clone WTA11 (mitochondrial apoaequorin + Galpha16). As for the experimental part: CHO—K1 cells (ATCC CRL-9618 (Bethesda, Md., USA)) were previously transfected with a plasmid encoding mitochondrial apoaequorin and Gα16. A clone obtained by limit dilution, called WTA11, was grown in Nutrient Mixture HAM's F12 medium supplemented with 10% fetal calf serum, 250 μg/ml zeocin, 100 units/ml penicillin and 100 μg/ml streptomycin. A bicistronic plasmid encoding the human GPR7 was transfected into WTA11 CHO—K1 cells, using Fugene 6 (Roche Diagnostics, Mannheim, Germany). Individual clones were selected two days after transfection with 400 μg/ml neomycin and GPR7-positive clones were confirmed by northern blotting, RT-PCR and sequencing.
Functional responses were analysed by recording the luminescence of aequorin following the addition of the ligand. In brief, cells were collected from plates with PBS containing 5 mM EDTA, pelleted, and resuspended at 10^7 cells/ml in DMEM-F12 medium and incubated with 5 μM coelenterainze H (Molecular Porbes) for 4 h at room temperature. Cells were then washed in DMEM-F12 medium and resuspended at a concentration of 2×10^6 cells/ml. Cells where then mixed with the ligand, and the light emission was recorded over 60 s using a Microlumat™ luminometer (Perkin Elmer). Results are expressed as relative light units (RLU) (FIG. 5).
as §2

For assay [6], the target named is T1, GPR7. Put plainly: Competition binding assay on membranes of CHO-K1 cells expressing GPR7. More on the design: expressed in transfected cells; host or cells: CHO-K1 clone WTA11 (mitochondrial apoaequorin + Galpha16). The following applies: [125I]-L7 as tracer. On the procedure:
as §3

Assay [7] has as its target T1, GPR7. Put plainly: Phosphoinositide (IP) accumulation in Cos-7 cells transfected with GPR7 and Gqi5 chimaeric G-protein. Format: cell-based. More on the design: expressed in transfected cells; host or cells: CHO-K1. The following applies: Cos-7 cells with GPR7 and Gqi5; data not shown. On the procedure: In the experiments in this section, the phosphoinositide accumulation assays comprised Cos-7 cells expressing GPR7 or GPR8, said cells labeled for 12 hours with 3 μCi/ml [3H] inositol in inositol-free DMEM containing 5% FBS. Cells were washed two times with Krebs-Ringer Hepes (KRH) buffer (10 mM Hepes pH 7.4, 146 mM NaCl, 4.2 mM KCl, 0.5 mM MgCl2, 1 mM CaCl2, 55 mM glucose) prior to the incubation with agonists at 37° C. for 30 min in KRH buffer containing 9.4 mM LiCl. The incubation was stopped by replacing the incubation medium with 1 ml of an ice-cold 5% perchloric acid solution. The medium was further neutralized with a 75 mM Hepes, 1.5 M KOH solution. The total inositol phosphate (IP) content was then extracted, and purified on Dowex columns as described (26). Total radioactivity remaining in the membrane fraction was counted after solubilization in 10% Triton, 0.1 N NaOH and used as standard for each well. Results were expressed as the radioactivity associated to IP over the total radioactivity present in membranes.

Assay [8] concerns the target T1, GPR7. Kind of assay: cAMP accumulation in CHO-WTA11 cells stably expressing the human GPR7. Format: cell-based. More on the design: expressed in transfected cells; host or cells: CHO-K1 clone WTA11 (mitochondrial apoaequorin + Galpha16). The note with it: comparison in words. On the procedure: L7 and L8 were tested on CHO—WTA11 cells stably expressing the human GPR7 for their ability to inhibit the activity of the adenylate cyclase stimulated with forskolin. EC50 were similar for both ligands (FIG. 7). There was no effect of L7 or L8 in cells coexpressing another receptor and used as negative control.

Molecules are shown by their SMILES.

On to `CC(C)C[C@H](NC(=O)CNC(=O)[C@H](C)NC(=O)[C@H](C)NC(=O)[C@H](CCCNC(=N)N)NC(=O)CNC(=O)[C@@H](NC(=O)[C@H](CO)NC(=O)[C@H](Cc1ccc(O)cc1)NC(=O)[C@H](CO)NC(=O)[C@H](CO)NC(=O)[C@H](Cc1c[nH]cn1)NC(=O)CNC(=O)[C@H](C)NC(=O)[C@H](C)NC(=O)[C@@H]1CCCN1C(=O)[C@H](CCCCN)NC(=O)[C@H](Cc1ccc(O)cc1)NC(=O)[C@@H](N)Cc1c[nH]c2ccccc12)C(C)C)C(=O)N[C@@H](CC(C)C)C(=O)N[C@@H](CO)C(=O)NCC(=O)N[C@@H](CC(C)C)C(=O)N[C@@H](CCCNC(=N)N)C(=O)N[C@@H](CCCNC(=N)N)C(=O)N[C@@H](CO)C(=O)N1CCC[C@H]1C(=O)N[C@@H](Cc1ccc(O)cc1)C(=O)N[C@@H](C)C(=O)O` [L7C], for which the IC50 on GPR7 [1] turned out to be 0.14 ± 0.04 nM; at GPR8 [2], 12.5 ± 2.3 nM; at GPR8 [4], 0.98 ± 0.28 nM; on GPR7 [6], 0.33 ± 0.05 nM. Moreover, the EC50 amounted to 91 ± 17 nM on GPR8 [3] and 50 ± 11 nM at GPR7 [5].

For the compound `CC(C)C[C@H](NC(=O)CNC(=O)[C@H](CO)NC(=O)[C@H](CC(C)C)NC(=O)[C@H](CC(C)C)NC(=O)CNC(=O)[C@H](C)NC(=O)[C@H](C)NC(=O)[C@H](CCCNC(=N)N)NC(=O)CNC(=O)[C@@H](NC(=O)[C@H](CO)NC(=O)[C@H](Cc1ccc(O)cc1)NC(=O)[C@H](CO)NC(=O)[C@H](CO)NC(=O)[C@H](Cc1c[nH]cn1)NC(=O)CNC(=O)[C@H](C)NC(=O)[C@H](C)NC(=O)[C@@H]1CCCN1C(=O)[C@H](CCCCN)NC(=O)[C@H](Cc1ccc(O)cc1)NC(=O)[C@@H](N)Cc1c[nH]c2ccccc12)C(C)C)C(=O)O` [L7], the IC50 at GPR7 [1] stood at 0.36 ± 0.05 nM; on GPR8 [2], 20.9 ± 2.5 nM; at GPR8 [4] it was 4.01 ± 0.13 nM; on GPR7 [6] it was 1.95 ± 0.27 nM. Moreover, the EC50 at GPR7 [7] turned out to be 8.2 nM; at GPR8 [3], 121 ± 16 nM; at GPR7 [5], 126 ± 21 nM. Moreover, the “EC50, inhibition of adenylate cyclase stimulated with forskolin” value at GPR7 [8] is “similar”.

Take `CSCC[C@H](NC(=O)[C@H](CC(C)C)NC(=O)[C@H](CC(C)C)NC(=O)CNC(=O)[C@H](C)NC(=O)[C@H](C)NC(=O)[C@H](CCCNC(=N)N)NC(=O)CNC(=O)[C@@H](NC(=O)[C@@H](NC(=O)[C@H](Cc1c[nH]cn1)NC(=O)[C@H](Cc1ccc(O)cc1)NC(=O)[C@H](CCCNC(=N)N)NC(=O)[C@@H]1CCCN1C(=O)[C@H](CO)NC(=O)[C@H](C)NC(=O)[C@@H](NC(=O)[C@H](Cc1c[nH]cn1)NC(=O)[C@H](CCCCN)NC(=O)[C@H](Cc1ccc(O)cc1)NC(=O)[C@@H](N)Cc1c[nH]c2ccccc12)C(C)C)[C@@H](C)O)C(C)C)C(=O)NCC(=O)N[C@@H](CC(C)C)C(=O)O` [L8, reference compound]: on GPR7 [8], the “EC50, inhibition of adenylate cyclase stimulated with forskolin” value is “similar”.

Turning to `CSCC[C@H](NC(=O)[C@H](CC(C)C)NC(=O)[C@H](CC(C)C)NC(=O)CNC(=O)[C@H](C)NC(=O)[C@H](C)NC(=O)[C@H](CCCNC(=N)N)NC(=O)CNC(=O)[C@@H](NC(=O)[C@@H](NC(=O)[C@H](Cc1cnc[nH]1)NC(=O)[C@H](Cc1ccc(O)cc1)NC(=O)[C@H](CCCNC(=N)N)NC(=O)[C@@H]1CCCN1C(=O)[C@H](CO)NC(=O)[C@H](C)NC(=O)[C@@H](NC(=O)[C@H](Cc1cnc[nH]1)NC(=O)[C@H](CCCCN)NC(=O)[C@H](Cc1ccc(O)cc1)NC(=O)[C@@H](N)Cc1c[nH]c2ccccc12)C(C)C)[C@@H](C)O)C(C)C)C(=O)NCC(=O)N[C@@H](CC(C)C)C(=O)N[C@@H](CCCNC(=N)N)C(=O)N[C@@H](CCCNC(=N)N)C(=O)N[C@@H](CO)C(=O)N1CCC[C@H]1C(=O)N[C@@H](Cc1ccc(O)cc1)C(=O)N[C@@H](CC(C)C)C(=O)N[C@@H](Cc1c[nH]c2ccccc12)C(=O)O` [L8C], the IC50 on GPR7 [1] worked out at 1.99 ± 0.57 nM; at GPR8 [2], 9.8 ± 2 nM; on GPR8 [4], 0.43 ± 0.15 nM; at GPR7 [6], 0.96 ± 0.16 nM. Moreover, the values for the EC50 at GPR8 [3] and on GPR7 [5] were 77 ± 7 nM and 241 ± 10 nM, respectively.
